# Assay results reported in patent publication US20230024302A1 (published 2023).
# By UniProt entry, the sequences of proteins in these tests, tags left out. Where a name states a change or a piece, a line headed by the entry shows the natural chain unless it says otherwise.
# UniProt P48736: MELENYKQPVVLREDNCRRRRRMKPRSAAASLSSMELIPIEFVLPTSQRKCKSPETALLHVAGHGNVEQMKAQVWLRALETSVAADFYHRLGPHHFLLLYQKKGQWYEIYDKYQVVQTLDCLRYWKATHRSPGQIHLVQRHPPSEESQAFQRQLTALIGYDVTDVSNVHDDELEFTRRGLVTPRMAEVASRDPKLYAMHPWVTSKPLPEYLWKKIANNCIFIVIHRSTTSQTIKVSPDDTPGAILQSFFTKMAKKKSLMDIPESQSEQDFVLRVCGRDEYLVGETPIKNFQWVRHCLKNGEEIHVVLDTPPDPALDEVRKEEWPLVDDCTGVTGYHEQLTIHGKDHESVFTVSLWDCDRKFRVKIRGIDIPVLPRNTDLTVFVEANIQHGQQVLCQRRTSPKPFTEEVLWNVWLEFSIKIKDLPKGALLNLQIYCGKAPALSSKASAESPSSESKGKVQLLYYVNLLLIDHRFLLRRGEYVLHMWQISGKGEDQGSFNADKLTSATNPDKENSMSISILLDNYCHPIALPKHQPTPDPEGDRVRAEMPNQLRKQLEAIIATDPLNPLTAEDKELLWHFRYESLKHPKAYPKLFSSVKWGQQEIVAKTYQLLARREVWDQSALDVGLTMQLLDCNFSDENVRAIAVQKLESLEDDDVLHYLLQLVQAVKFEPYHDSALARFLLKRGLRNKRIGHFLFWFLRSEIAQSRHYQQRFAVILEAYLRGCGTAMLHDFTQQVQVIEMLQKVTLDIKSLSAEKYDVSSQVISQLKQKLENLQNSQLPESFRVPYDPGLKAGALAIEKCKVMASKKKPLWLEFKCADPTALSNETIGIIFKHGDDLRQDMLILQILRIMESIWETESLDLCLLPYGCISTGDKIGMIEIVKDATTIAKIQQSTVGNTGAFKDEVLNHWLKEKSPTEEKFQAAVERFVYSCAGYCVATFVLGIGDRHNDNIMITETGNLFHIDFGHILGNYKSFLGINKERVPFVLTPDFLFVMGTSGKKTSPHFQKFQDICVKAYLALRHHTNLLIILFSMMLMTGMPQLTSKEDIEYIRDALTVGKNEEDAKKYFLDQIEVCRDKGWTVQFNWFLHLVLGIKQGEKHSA
# Biological target: PI3Kγ (p120γ) (Homo sapiens, UniProt P48736)
# Test: Inhibition of PI3K kinase activity (ADP Glo), PI3Kγ
smiles,measurement,value
"CC(C)S(=O)(=O)c1cc(-c2ccn3nc(N)c(C(=O)NC4CC4)c3n2)cc2c1C(=O)N([C@@H](C)C1CC1)C2 [Example 134, 2-Amino-N-cyclopropyl-5-{2-[(1S)-1-cyclopropylethyl]-1-oxo-7-(propane-2-sulfonyl)-2,3-dihydro-1H-isoindol-5-yl}pyrazolo[1,5-a]pyrimidine-3-carboxamide]",IC50,< 100 nM
